Assay results taken from ChEMBL document CHEMBL4602613, “Early identification of promiscuous attributes of aldose reductase inhibitors using a DMSO-perturbation assay” (Bioorg Med Chem Lett, 2020).
pIC50: −log10 of the molar value.

Legend:
[1] = target: T1, Aldo-keto reductase family 1 member B1 (Homo sapiens, UniProt P15121)
[2] = target: T1, Aldo-keto reductase family 1 member B1; assay: Inhibition of human recombinant AKR1B1 assessed as D,L-glyceraldehyde reduction pretreated with 0.7M DMSO followed by compound addition by DMSO-perturbation assay
[3] = target: T1, Aldo-keto reductase family 1 member B1; assay: Inhibition of human recombinant AKR1B1 assessed as D,L-glyceraldehyde reduction pretreated with 0.3M DMSO followed by compound addition by DMSO-perturbation assay

`O=C(O)Cc1nn(Cc2nc3cc(C(F)(F)F)ccc3s2)c(=O)c2ccccc12` [ZOPOLRESTAT] showed a pIC50 [1] of 7.28, a pIC50 [2] of 7.37 and a pIC50 [3] of 7.42.
